The text below walks through data of patent publication US11702475B2, “Cysteine engineered fibronectin type III domain binding molecules” (Janssen Biotech, Inc., priority 2013, dated 2023).

The conditions of data set [1]: mouse, in vivo.
Data set [2] deals with H292-HGF human lung cancer xenograft. Briefly: Efficacy of bispecific molecule and other inhibitors in subcutaneous H292-HGF xenograft model. The class given is in vivo, SCID/Beige mice.

With cetuximab, the “toxicity / body weight loss / tolerability (in words)” value in data set [1] was “well tolerated”. For the same substance, the “tumor growth delay compared with the vehicle group” value in data set [2] (at tumor size of 1,000 mm^3, doses as in E46) amounted to 17 days. In addition, the “Tumor volume (mm^3)” value came out at 139 ± 10 mm^3 in data set [2] (day 7 after tumor inoculation (start of treatment), mean ± SEM, bispecific 25 mg/kg, Crizotinib 50 mg/kg, Erlotinib 50 mg/kg, Cetuximab 1 mg/mouse); 168 ± 13 mm^3 in data set [2] (day 9 after tumor inoculation, mean ± SEM, bispecific 25 mg/kg, Crizotinib 50 mg/kg, Erlotinib 50 mg/kg, Cetuximab 1 mg/mouse); 212 ± 20 mm^3 in data set [2] (day 13 after tumor inoculation, mean ± SEM, bispecific 25 mg/kg, Crizotinib 50 mg/kg, Erlotinib 50 mg/kg, Cetuximab 1 mg/mouse); 252 ± 28 mm^3 in data set [2] (day 16 after tumor inoculation, mean ± SEM, bispecific 25 mg/kg, Crizotinib 50 mg/kg, Erlotinib 50 mg/kg, Cetuximab 1 mg/mouse); 371 ± 48 mm^3 in data set [2] (day 20 after tumor inoculation, mean ± SEM, bispecific 25 mg/kg, Crizotinib 50 mg/kg, Erlotinib 50 mg/kg, Cetuximab 1 mg/mouse); 485 ± 61 mm^3 in data set [2] (day 23 after tumor inoculation, mean ± SEM, bispecific 25 mg/kg, Crizotinib 50 mg/kg, Erlotinib 50 mg/kg, Cetuximab 1 mg/mouse). Moreover, the “Tumor volume (mm^3)” value is 640 ± 82 mm^3 in data set [2] (day 27 after tumor inoculation, mean ± SEM, bispecific 25 mg/kg, Crizotinib 50 mg/kg, Erlotinib 50 mg/kg, Cetuximab 1 mg/mouse) and 869 ± 100 mm^3 in data set [2] (day 30 after tumor inoculation, mean ± SEM, bispecific 25 mg/kg, Crizotinib 50 mg/kg, Erlotinib 50 mg/kg, Cetuximab 1 mg/mouse). The same substance came in with a T/C value in data set [2] (day 23, doses as in E46) of 28%. In data set [2] (day 23, mean volume of treated vs control group, doses as in the Treatment column), the “T/C (%)” value was 28%. The “Tumor Size (mm^3) at day 23” value in data set [2] (day 23, mean ± SEM, bispecific 25 mg/kg, Crizotinib 50 mg/kg, Erlotinib 50 mg/kg, combination 50 mg/kg + 50 mg/kg, Cetuximab 1 mg/mouse) was determined as 485 ± 61 mm^3. The mean tumor size in data set [2] (day 23 after tumor inoculation, ECB38 25 mg/kg, Crizotinib 50 mg/kg, Erlotinib 50 mg/kg, Cetuximab 1 mg/mouse) stood at 485 mm^3. In addition, the “antitumor activity (in words)” value in data set [2] (doses as in E46) is listed as “significant antitumor activities”. Further, the “T-C (days) at 1000 mm^3” value in data set [2] (tumor growth delay to mean tumor size 1000 mm^3 vs vehicle, doses as in the Treatment column) is recorded as 17 days.
